# Experimental data published in ChEMBL document CHEMBL5329213, “Discovery of a novel GPR35 agonist with high and equipotent species potency for oral treatment of IBD” (Bioorg Med Chem, 2023).
# By UniProt entry, the sequences of proteins in these tests, tags left out. Where a name states a change or a piece, a line headed by the entry shows the natural chain unless it says otherwise.
# UniProt Q9ES90: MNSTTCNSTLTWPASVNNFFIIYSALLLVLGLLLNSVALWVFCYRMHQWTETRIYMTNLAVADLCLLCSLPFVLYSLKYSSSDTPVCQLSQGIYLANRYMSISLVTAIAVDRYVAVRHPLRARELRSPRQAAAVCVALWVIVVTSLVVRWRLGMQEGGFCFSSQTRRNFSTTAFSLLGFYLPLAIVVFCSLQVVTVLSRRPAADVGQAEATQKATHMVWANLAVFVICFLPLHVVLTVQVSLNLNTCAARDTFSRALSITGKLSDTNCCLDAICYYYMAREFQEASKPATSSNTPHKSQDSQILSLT
# Target: G-protein coupled receptor 35 (Mus musculus) (UniProt Q9ES90)
# Assay: Agonist activity at mouse GPR35 expressed in HEK293 cells co-expressing Galpha16 assessed as increase in calcium mobilization by Fluo-4 AM dye based fluorescence assay relative to-iodoxamide
# Type: functional, cell-based
# Details: filed as agonist
row,SMILES,Emax
1,CN(C)c1c(NC(=O)C(=O)O)cc(C#N)cc1NC(=O)C(=O)O,83%
2,N#Cc1cc(NC(=O)C(=O)O)cc(NC(=O)C(=O)O)c1,123%
3,CCOC(=O)C(=O)Nc1cc(C(F)(F)F)cc(NC(=O)C(=O)OCC)c1Cl,99%
4,Cc1cc(NC(=O)C(=O)O)c(Cl)c(NC(=O)C(=O)O)c1,83%
5,COC(=O)C(=O)Nc1cc(C(F)(F)F)cc(NC(=O)C(=O)OC)c1Cl,90%
6,O=C(O)C(=O)Nc1cc(C(F)(F)F)cc(NC(=O)C(=O)O)c1Cl,108%
7,O=C(Nc1cc(C(F)(F)F)cc(NC(=O)C(=O)OC2CCC2)c1Cl)C(=O)OC1CCC1,96%
8,O=C(O)C(=O)Nc1cc(NC(=O)C(=O)O)cc(C(F)(F)F)c1,95%
9,CCOC(=O)C(=O)Nc1cc(Br)cc(NC(=O)C(=O)OCC)c1Cl,110%
10,N#Cc1cc(NC(=O)C(=O)O)c(Cl)c(NC(=O)C(=O)O)c1 [LODOXAMIDE],100%
11,O=C(Nc1cc(C(F)(F)F)cc(NC(=O)C(=O)OC2CCCCC2)c1Cl)C(=O)OC1CCCCC1,86%
12,CCOC(=O)C(=O)Nc1cc(C(=O)OCC(C)C)cc(NC(=O)C(=O)OCC)c1Cl,80%
13,O=C(O)C(=O)Nc1cccc(NC(=O)C(=O)O)c1Cl,128%
14,CCOC(=O)C(=O)Nc1cccc(NC(=O)C(=O)OCC)c1Cl,113%
15,COc1c(NC(=O)C(=O)O)cc(C#N)cc1NC(=O)C(=O)O,93%
